Experimental data as given in article PMC6222802 (Molecules : A Journal of Synthetic Chemistry and Natural …, 2018).

Legend:
[1] = tested on: L929 cells; assay: MTT assay, non-cancerous L929 cells; conditions: read-out: IC50, L929, 48 h, normal cell
[2] = tested on: H22 cells; assay: MTT anti-proliferation assay, H22 cells; conditions: read-out: IC50, H22, 48 h
[3] = tested on: S180 cells; assay: MTT anti-proliferation assay, S180 cells; conditions: read-out: IC50, S180, 48 h
[4] = tested on: K562 cells; assay: MTT anti-proliferation assay, K562 cells; conditions: read-out: IC50, K562, 48 h
[5] = tested on: LoVo cells; assay: MTT anti-proliferation assay, LoVo cells; conditions: read-out: IC50, LoVo, 48 h
[6] = tested on: MCF-7 cells; assay: MTT anti-proliferation assay, MCF-7 cells; conditions: read-out: IC50, MCF-7, 48 h
[7] = tested on: SMMC-7721 cells; assay: MTT anti-proliferation assay, SMMC-7721 cells; conditions: read-out: IC50, SMMC-7721, 48 h

## O=P(Cl)(Cl)N(CCCl)CCCl
[1]
  IC50: 52.8 µM
[2]
  IC50: 11.7 µM
[3]
  IC50: 12.1 µM
[4]
  IC50: 48.8 µM
[5]
  IC50: 84 µM
[6]
  IC50: 111 µM
[7]
  IC50: 48.8 µM

This is a selection: effects in other tests are not listed, and their absence says nothing.
